From US20090306126A1, “Indole Derivatives” (ASTRAZENECA AB, priority 2006, published 2009)

Chains of the proteins cited; added tags and fusions are not shown.
UniProt P42336, whole entry: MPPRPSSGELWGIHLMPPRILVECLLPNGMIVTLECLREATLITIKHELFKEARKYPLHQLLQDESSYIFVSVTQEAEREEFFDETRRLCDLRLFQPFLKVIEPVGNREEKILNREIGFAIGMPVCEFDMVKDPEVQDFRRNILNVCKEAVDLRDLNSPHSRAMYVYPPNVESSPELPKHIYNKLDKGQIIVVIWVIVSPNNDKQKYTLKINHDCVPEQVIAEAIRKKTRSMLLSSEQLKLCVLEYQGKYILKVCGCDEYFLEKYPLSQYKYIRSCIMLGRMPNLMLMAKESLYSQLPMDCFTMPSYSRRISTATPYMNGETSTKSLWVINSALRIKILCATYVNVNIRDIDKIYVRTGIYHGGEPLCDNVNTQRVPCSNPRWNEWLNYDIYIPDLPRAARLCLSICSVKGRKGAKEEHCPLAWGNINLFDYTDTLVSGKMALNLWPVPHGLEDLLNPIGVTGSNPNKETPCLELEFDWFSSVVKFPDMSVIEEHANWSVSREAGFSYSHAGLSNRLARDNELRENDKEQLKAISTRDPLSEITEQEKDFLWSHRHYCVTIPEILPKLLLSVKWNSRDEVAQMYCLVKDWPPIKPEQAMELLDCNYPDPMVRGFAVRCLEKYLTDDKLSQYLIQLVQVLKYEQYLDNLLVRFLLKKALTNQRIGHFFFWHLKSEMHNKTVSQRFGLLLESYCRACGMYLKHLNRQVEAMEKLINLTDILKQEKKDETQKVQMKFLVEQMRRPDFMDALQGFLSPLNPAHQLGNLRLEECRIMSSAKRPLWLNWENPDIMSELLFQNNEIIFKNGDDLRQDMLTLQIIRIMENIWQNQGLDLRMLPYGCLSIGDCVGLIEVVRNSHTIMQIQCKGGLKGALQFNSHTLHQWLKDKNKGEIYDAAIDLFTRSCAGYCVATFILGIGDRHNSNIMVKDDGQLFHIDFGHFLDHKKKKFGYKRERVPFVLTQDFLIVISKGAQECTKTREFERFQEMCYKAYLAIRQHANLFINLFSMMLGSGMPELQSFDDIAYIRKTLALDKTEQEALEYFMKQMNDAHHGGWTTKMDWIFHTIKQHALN
UniProt P27986, whole entry partner: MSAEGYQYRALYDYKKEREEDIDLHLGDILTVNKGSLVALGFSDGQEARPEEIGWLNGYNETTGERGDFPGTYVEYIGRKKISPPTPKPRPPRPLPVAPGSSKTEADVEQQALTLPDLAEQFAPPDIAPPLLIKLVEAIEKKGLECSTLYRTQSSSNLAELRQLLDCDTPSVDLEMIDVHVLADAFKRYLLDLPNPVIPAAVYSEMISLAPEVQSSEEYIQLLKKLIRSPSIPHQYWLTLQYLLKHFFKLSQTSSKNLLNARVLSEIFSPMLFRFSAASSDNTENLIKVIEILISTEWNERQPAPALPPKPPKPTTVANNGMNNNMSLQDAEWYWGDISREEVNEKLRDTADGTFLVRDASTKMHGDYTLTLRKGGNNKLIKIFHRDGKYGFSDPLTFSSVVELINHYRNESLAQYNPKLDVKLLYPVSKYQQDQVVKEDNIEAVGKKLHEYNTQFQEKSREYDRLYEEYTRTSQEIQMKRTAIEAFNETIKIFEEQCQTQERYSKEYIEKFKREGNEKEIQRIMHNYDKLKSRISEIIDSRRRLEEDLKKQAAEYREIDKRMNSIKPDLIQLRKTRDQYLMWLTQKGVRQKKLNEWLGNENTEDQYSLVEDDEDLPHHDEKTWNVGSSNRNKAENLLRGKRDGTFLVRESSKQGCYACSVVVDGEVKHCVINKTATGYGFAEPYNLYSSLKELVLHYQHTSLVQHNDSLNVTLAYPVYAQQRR

What was measured:
[1] = molecular target: p110α Type Ia human PI3K (Homo sapiens, UniProt P42336); assay: In vitro PI3K enzyme assay (AlphaScreen), Test (a); type: biochemical; details: read-out: IC50 versus p110α Type Ia human PI3K, recombinant enzyme, ATP 4 μM
[2] = tested on: phosphorylation of Serine 473 in Akt; assay: In vitro phospho-Ser473 Akt assay in MDA-MB-468 cells, Test (c); type: cell-based, human; details: read-out: IC50, inhibition of phosphorylation of Serine 473 in Akt, 2 hours

Question: What does the source list for `O=S(=O)(CC(F)(F)F)Nc1cc(-c2cnc3[nH]ccc3c2)cnc1Cl`?
Answer: IC50 [1]: 500 nM; IC50 [2]: 17000 nM

Question: What does the source list for `Cc1nc(C)c(S(=O)(=O)Nc2cc(-c3cnc4[nH]ccc4c3)cnc2Cl)s1`?
Answer: IC50 [1]: 100 nM; IC50 [2]: 2000 nM
